Source: PubChem BioAssay AID504414 (Broad Institute, 2011)
Only a part is listed here, and it is no random draw. Active and inactive are the calls of the source.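 How the source made its calls: active means highest replicate inhibition of at least 40%; inactive means the rest.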

Target: Golgi-associated PDZ and coiled-coil motif-containing protein (Homo sapiens) (UniProt Q9HD26)
Test: CAL PDZ peptide-binding inhibitors, primary screen, biochemical, fluorescence polarization, Cer-tagged CAL PDZ, HTS (AID 504414);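 further: plate controls were DMSO neutral control wells for no effect and unlabeled competitor peptide control wells for full effect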
Conditions: purified CAL PDZ, TMR-peptide fluorescence polarization, 1 h; at 20 µM; hits give high values

**Q.** Which inhibition does the source give for O=C(NCC1(N2CCCCC2)CCCCC1)c1ccc(OC(F)F)cc1 here?
**A.** inactive: -1.47%

**Q.** Which inhibition does the source give for O=C(NCC1(N2CCCCC2)CCCCC1)c1cccc([N+](=O)[O-])c1 here?
**A.** inactive: -1.88%

**Q.** CSc1ccc(C(=O)NCC2(N3CCOCC3)CCCCC2)cc1 was tested. Which inhibition did it give?
**A.** inactive: -3.66%

**Q.** Which inhibition does the source give for CCN1CCC(Nc2ccc(Cl)cc2)CC1 here?
**A.** inactive: -0.202%

**Q.** N#CC1(Nc2ccccc2)CCN(CCc2ccccc2)CC1 was tested. Which inhibition did it give?
**A.** inactive: -0.525%

**Q.** How did the inhibition turn out when O=C(NCC1(N2CCCCC2)CCCCC1)c1cccc(C(F)(F)F)c1 was run?
**A.** inactive: -2.38%

**Q.** How did the inhibition turn out when CN1CCN(CCOC(=O)C(O)(c2ccccc2)c2ccccc2)CC1 was run?
**A.** inactive: 0.442%

**Q.** How did the inhibition turn out when COc1ccc(NC2CCN(C(=O)OC(C)(C)C)CC2)cc1 was run?
**A.** inactive: -0.984%

**Q.** How did the inhibition turn out when CC(C)c1ccc(C(=O)NCC2(N3CCOCC3)CCCCC2)cc1 was run?
**A.** inactive: -1.92%

**Q.** With COc1cc(C(=O)NCC2(N3CCCCC3)CCCCC2)ccc1OC(F)F as the compound, how does the inhibition read?
**A.** inactive: -0.604%

**Q.** How did the inhibition turn out when O=C(NCC1(N2CCOCC2)CCCCC1)c1cc(=O)[nH]c2ccccc12 was run?
**A.** inactive: -3.8%

**Q.** Which inhibition does the source give for COc1ccc(CN(CCCl)CCCl)cc1Cl here?
**A.** inactive: -1.28%

**Q.** CN(C)c1cccc(C(=O)NCC2(N3CCCCC3)CCCCC2)c1 was tested. Which inhibition did it give?
**A.** inactive: -0.835%

**Q.** CC(C)c1ccc(NC2CCN(C(=O)OC(C)(C)C)CC2)cc1 was tested. Which inhibition did it give?
**A.** inactive: -2.01%

**Q.** With COc1cc(OC)c(C(=O)NCC2(N(C)C)CCCCC2)cc1OC as the compound, how does the inhibition read?
**A.** inactive: -0.777%

**Q.** For O=C(NCC1(N2CCOCC2)CCCCC1)c1cc(F)c(F)cc1Cl, which inhibition is on record?
**A.** inactive: 0.855%

**Q.** With O=C(NCC1(N2CCCCC2)CCCCC1)c1cncc(Br)c1 as the compound, how does the inhibition read?
**A.** inactive: 0.47%

**Q.** How did the inhibition turn out when CN1CCC(Nc2cccc(F)c2)CC1 was run?
**A.** inactive: -2.49%

**Q.** O=C(NCC1(N2CCCCC2)CCCCC1)c1ccc(=O)[nH]c1 was tested. Which inhibition did it give?
**A.** inactive: -0.0615%

**Q.** How did the inhibition turn out when O=C(NCC1(N2CCCCC2)CCCCC1)c1cccs1 was run?
**A.** inactive: -2.23%

**Q.** COc1ccc(C(=O)NCC2(N3CCCCC3)CCCCC2)cc1 was tested. Which inhibition did it give?
**A.** inactive: -1.62%

**Q.** Which inhibition does the source give for COc1ccc(C(=O)NCC2(N3CCCCC3)CCCCC2)c(OC)c1OC here?
**A.** inactive: 0.295%

**Q.** Which inhibition does the source give for CC(C)(C)OC(=O)N1CCC(N(C(=O)c2ccccc2)c2ccc(F)cc2)CC1 here?
**A.** inactive: 0.97%

**Q.** Which inhibition does the source give for CSc1ccccc1C(=O)NCC1(N2CCCCC2)CCCCC1 here?
**A.** inactive: -0.00409%

**Q.** How did the inhibition turn out when Cc1cccc(NC2(C#N)CCN(Cc3ccccc3)CC2)c1 was run?
**A.** inactive: -0.126%

**Q.** For O=C(NCC1(N2CCOCC2)CCCCC1)c1cc2ccccc2o1, which inhibition is on record?
**A.** inactive: -0.971%

**Q.** How did the inhibition turn out when O=C(NCC1(N2CCCCC2)CCCCC1)c1ccc(Cl)nc1 was run?
**A.** inactive: -2.87%

**Q.** Cc1cc(C)cc(N(C(=O)c2ccccc2)C2CCN(C(=O)OC(C)(C)C)CC2)c1 was tested. Which inhibition did it give?
**A.** inactive: -0.158%

**Q.** With CCOC(=O)N1CCC(Nc2ccc(OC)cc2)CC1 as the compound, how does the inhibition read?
**A.** inactive: -2.3%

**Q.** How did the inhibition turn out when O=C(NCC1(N2CCCCC2)CCCCC1)c1ccc(Cl)s1 was run?
**A.** inactive: -0.187%

**Q.** N#CC1(Nc2ccccc2)CCN(Cc2ccccc2)CC1 was tested. Which inhibition did it give?
**A.** inactive: -0.887%

**Q.** How did the inhibition turn out when COc1ccc(Cl)cc1C(=O)NCC1(N2CCOCC2)CCCCC1 was run?
**A.** inactive: -0.244%

**Q.** CCOc1ccc(C)cc1CN(CCCl)CCCl was tested. Which inhibition did it give?
**A.** inactive: 0.0396%

**Q.** O=C1CCN(Cc2ccccc2)CC1 was tested. Which inhibition did it give?
**A.** inactive: -6.26%

**Q.** O=C(NCC1(N2CCCCC2)CCCCC1)c1ccc(F)cc1 was tested. Which inhibition did it give?
**A.** inactive: -1.54%

**Q.** How did the inhibition turn out when O=P1(N(CCCl)CCCl)SCCCS1 was run?
**A.** inactive: -0.0619%

**Q.** Which inhibition does the source give for CCCCOc1ccc(C(=O)NCC2(N3CCOCC3)CCCCC2)cc1 here?
**A.** inactive: -3.48%

**Q.** Which inhibition does the source give for COc1ccc(NC2CCN(CCc3ccccc3)CC2)c(OC)c1 here?
**A.** inactive: 0.101%

**Q.** For CCOC(=O)N1CCC(Nc2ccc(F)cc2)CC1, which inhibition is on record?
**A.** inactive: 0.726%

**Q.** Which inhibition does the source give for COc1cc(C(=O)NCC2(N(C)C)CCCCC2)ccc1OC(F)F here?
**A.** inactive: -1.15%

**Q.** How did the inhibition turn out when CCOC(=O)N1CCC(Nc2cccc(C)c2)CC1 was run?
**A.** inactive: -0.27%

**Q.** For COc1cc(OC)cc(C(=O)NCC2(N3CCCCC3)CCCCC2)c1, which inhibition is on record?
**A.** inactive: -2.37%

**Q.** How did the inhibition turn out when CC(=O)N(c1ccccc1)C1CCNCC1 was run?
**A.** inactive: -0.443%

**Q.** How did the inhibition turn out when Cc1ccc(NC2(C#N)CCN(Cc3ccccc3)CC2)cc1 was run?
**A.** inactive: -0.151%

**Q.** Cc1ccc(C(=O)NCC2(N3CCCCC3)CCCCC2)o1 was tested. Which inhibition did it give?
**A.** inactive: -1.61%

**Q.** Fc1ccccc1NC1CCN(Cc2ccccc2)CC1 was tested. Which inhibition did it give?
**A.** inactive: -0.715%

**Q.** Cc1ccccc1NC1(C#N)CCN(Cc2ccccc2)CC1 was tested. Which inhibition did it give?
**A.** inactive: -0.78%

**Q.** CCN1CCC(Nc2cccc(F)c2)CC1 was tested. Which inhibition did it give?
**A.** inactive: -0.582%

**Q.** For O=C(NCC1(N2CCCCC2)CCCCC1)c1ccco1, which inhibition is on record?
**A.** inactive: 0.486%

**Q.** With Cn1c(=O)[nH]cc(N(CCCl)CCCl)c1=O as the compound, how does the inhibition read?
**A.** inactive: 0.437%

**Q.** For CN(C)c1ccc(C(=O)NCC2(N3CCCCC3)CCCCC2)cc1, which inhibition is on record?
**A.** inactive: -2.39%

**Q.** CCOc1ncccc1C(=O)NCC1(N2CCOCC2)CCCCC1 was tested. Which inhibition did it give?
**A.** inactive: -0.613%

**Q.** CN1CCC(Nc2ccc(F)c(Cl)c2)CC1 was tested. Which inhibition did it give?
**A.** inactive: -0.391%

**Q.** With CCCOc1ccc(C(=O)NCC2(N(C)C)CCCCC2)cc1 as the compound, how does the inhibition read?
**A.** inactive: 0.462%

**Q.** CC(C)(C)OC(=O)N1CCC(Nc2ccccc2)CC1 was tested. Which inhibition did it give?
**A.** inactive: -1.69%

**Q.** Which inhibition does the source give for O=C(O)C1(Nc2ccccc2)CCN(Cc2ccccc2)CC1 here?
**A.** inactive: 0.772%

**Q.** With CCC(CO)(C(=O)OC1CN2CCC1CC2)c1ccccc1 (stereo not given) as the compound, how does the inhibition read?
**A.** inactive: -0.786%

**Q.** COc1cc(OC)cc(C(=O)NCC2(N3CCOCC3)CCCCC2)c1 was tested. Which inhibition did it give?
**A.** inactive: -0.302%

**Q.** For CN1CCC(Nc2ccc(Cl)cc2)CC1, which inhibition is on record?
**A.** inactive: 11.7%

**Q.** O=C(NCC1(N2CCOCC2)CCCCC1)c1cc(Br)ccc1Cl was tested. Which inhibition did it give?
**A.** inactive: 0.463%

**Q.** Which inhibition does the source give for COc1cc(C(=O)NCC2(N3CCOCC3)CCCCC2)cc(OC)c1C here?
**A.** inactive: 0.28%

**Q.** COc1ccc(C(=O)NCC2(N3CCOCC3)CCCCC2)cc1OC was tested. Which inhibition did it give?
**A.** inactive: -0.344%

**Q.** With N/C(=N\O)c1c(N)no[n+]1[O-] as the compound, how does the inhibition read?
**A.** inactive: -0.531%

**Q.** How did the inhibition turn out when CCOC(=O)N1CCC(Nc2ccc(C)cc2)CC1 was run?
**A.** inactive: 0.688%

**Q.** Which inhibition does the source give for O=C(OC1CN2CCC1CC2)C1c2ccccc2C=Cc2ccccc21 (stereo not given) here?
**A.** inactive: -0.344%

**Q.** How did the inhibition turn out when CC(C)(C)OC(=O)N1CCC(N(C(=O)c2ccccc2)c2ccc(Cl)cc2)CC1 was run?
**A.** inactive: -2.02%

**Q.** N#Cc1ccc(C(=O)NCC2(N3CCCCC3)CCCCC2)cc1 was tested. Which inhibition did it give?
**A.** inactive: -1.43%

**Q.** How did the inhibition turn out when c1ccc(CN2CCC(Nc3ccccc3)CC2)cc1 was run?
**A.** inactive: -1.29%

**Q.** Cc1cc(N(CCCl)CCCl)ccc1C=O was tested. Which inhibition did it give?
**A.** inactive: -0.371%

**Q.** Which inhibition does the source give for CN(C)C1(CNC(=O)c2cccc(C#N)c2)CCCCC1 here?
**A.** inactive: 0.764%
